Source: US20050148586A1 (priority 2004, published 2005)

Molecular target: T1, glycogen phosphorylase (from rabbit muscle, Sigma P1261) (Oryctolagus cuniculus, UniProt P00489)
T1 construct: glycogen phosphorylase (from rabbit muscle, Sigma P1261); purchased Sigma P1261; host or cells: rabbit muscle (tissue-derived)
T1 sequence (P00489 2-843 limits assumed): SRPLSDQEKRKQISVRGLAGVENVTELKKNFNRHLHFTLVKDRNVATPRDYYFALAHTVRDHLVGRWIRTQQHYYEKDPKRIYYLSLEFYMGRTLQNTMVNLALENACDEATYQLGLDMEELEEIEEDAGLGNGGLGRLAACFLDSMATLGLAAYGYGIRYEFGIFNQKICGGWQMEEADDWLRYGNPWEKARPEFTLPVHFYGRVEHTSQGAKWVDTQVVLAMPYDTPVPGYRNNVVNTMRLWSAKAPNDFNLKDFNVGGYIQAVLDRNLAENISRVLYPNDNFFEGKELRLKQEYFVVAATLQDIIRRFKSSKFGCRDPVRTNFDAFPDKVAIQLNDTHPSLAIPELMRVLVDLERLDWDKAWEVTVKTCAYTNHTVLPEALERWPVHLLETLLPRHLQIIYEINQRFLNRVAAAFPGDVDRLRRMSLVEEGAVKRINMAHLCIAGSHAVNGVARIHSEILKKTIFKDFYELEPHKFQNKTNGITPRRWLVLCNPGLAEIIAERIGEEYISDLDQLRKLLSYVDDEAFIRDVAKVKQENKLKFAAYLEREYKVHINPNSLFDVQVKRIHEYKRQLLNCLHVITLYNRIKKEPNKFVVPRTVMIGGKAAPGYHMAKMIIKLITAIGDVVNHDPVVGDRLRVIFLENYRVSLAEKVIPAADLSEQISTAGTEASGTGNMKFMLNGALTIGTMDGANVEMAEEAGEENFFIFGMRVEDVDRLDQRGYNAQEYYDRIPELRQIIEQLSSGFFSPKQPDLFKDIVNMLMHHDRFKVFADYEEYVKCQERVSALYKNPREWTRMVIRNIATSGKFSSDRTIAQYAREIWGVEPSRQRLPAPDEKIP
Test: Enzyme Inhibition Assay (malachite green phosphate readout)
Format: biochemical
Conditions: +/−.05

IC50: 420 nM
Compound: O=C(NCc1cccs1)c1ccc(Nc2nc3ccccc3n(CCN3CCCCC3)c2=O)cc1 [Compound 62]
